Structures are written as SMILES. Converted amounts (≈) assume the structure as drawn. Like-named read-outs stand apart in the source and are kept apart here.

Assay [1] deals with NDM-1 Klebsiella pneumonia BAA2473.
For assay [2], the system named is NDM-1 Klebsiella pneumonia BAA2472. As to the kind of experiment: microbe, parasite or virus in culture. The note with it: Klebsiella pneumoniae, BAA2472, 24 h.
The next assay deals with NDM-1 E. coli BAA2471. As to the kind of experiment: microbe, parasite or virus in culture. Particulars: Escherichia coli, BAA2471, 24 h.
The test system of assay [3] is NDM-1 Klebsiella pneumonia BAA2473. Description: microbe, parasite or virus in culture. Particulars: Klebsiella pneumoniae, BAA2473, 24 h.

As to `Cc1cn([C@H]2C[C@H](N=[N+]=[N-])[C@@H](CO)O2)c(=O)[nH]c1=O` [HT0120663, Zidovudine], the “effect on synergy compared with rifampicin and colistin combination” value in assay [1] (HT0120663 at 2 μg/ml added) and in assay [1] (HT0120663 at 4 μg/ml added) was “increased the effect of synergy by reduction of rifampicin MIC” in each case. Moreover, the MIC (in assay [2]; with NDM-1 E. coli BAA2471; in assay [3]) was 8 µg/mL (≈ 29.9 µM) throughout.
On to `CO[C@H]1/C=C/O[C@@]2(C)Oc3c(C)c(O)c4c(O)c(c(/C=N/N5CCN(C)CC5)c(O)c4c3C2=O)NC(=O)/C(C)=C\C=C\[C@H](C)[C@H](O)[C@@H](C)[C@@H](O)[C@@H](C)[C@H](OC(C)=O)[C@@H]1C` [rifampicin, Rifampicin], for which the MIC (in assay [2]; against NDM-1 E. coli BAA2471) was 4 µg/mL (≈ 4.86 µM) each time.

For the origin of these results see patent US10098904B2, “Zidovudine combination therapies for treating microbial infections” (HELPERBY THERAPEUTICS LIMITED, priority 2014, dated 2018).
